Assay results taken from PubChem BioAssay (Tox21).
Several values for one entry are separate records, joined by “and”; a condition that tells them apart may be missing. Identical values can stand only once. The entries are a selection whose mix differs from that of the whole data set. Results filed as inconclusive are left out. More than one record can exist for a structure, and the calls need not agree. Activity calls are given as the source filed them. Unless noted, the call rests on the fitted dose curve; in most records, active means well fitted curve in the direction sought with a large enough effect in the repeat runs; inconclusive means weak or mixed curves; inactive means no such curve, though single readings can be large; an effect the other way counts as inactive or inconclusive.

The chains behind the UniProt entries cited, without tags or fusion partners. Where a name states a change or a piece, a line headed by the entry shows the natural chain unless it says otherwise.
UniProt Q96RI1: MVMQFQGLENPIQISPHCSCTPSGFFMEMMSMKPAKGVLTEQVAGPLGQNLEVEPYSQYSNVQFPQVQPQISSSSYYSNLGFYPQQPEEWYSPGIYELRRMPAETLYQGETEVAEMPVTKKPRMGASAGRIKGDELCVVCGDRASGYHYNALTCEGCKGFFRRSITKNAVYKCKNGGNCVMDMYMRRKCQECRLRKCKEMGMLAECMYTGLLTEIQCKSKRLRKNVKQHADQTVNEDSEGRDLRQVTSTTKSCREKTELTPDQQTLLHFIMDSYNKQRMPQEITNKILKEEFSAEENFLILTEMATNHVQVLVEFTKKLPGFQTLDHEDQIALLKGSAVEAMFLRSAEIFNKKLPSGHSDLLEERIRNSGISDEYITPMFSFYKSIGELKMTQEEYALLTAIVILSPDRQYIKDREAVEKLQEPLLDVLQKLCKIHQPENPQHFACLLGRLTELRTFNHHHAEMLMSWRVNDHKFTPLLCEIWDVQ
UniProt P19793: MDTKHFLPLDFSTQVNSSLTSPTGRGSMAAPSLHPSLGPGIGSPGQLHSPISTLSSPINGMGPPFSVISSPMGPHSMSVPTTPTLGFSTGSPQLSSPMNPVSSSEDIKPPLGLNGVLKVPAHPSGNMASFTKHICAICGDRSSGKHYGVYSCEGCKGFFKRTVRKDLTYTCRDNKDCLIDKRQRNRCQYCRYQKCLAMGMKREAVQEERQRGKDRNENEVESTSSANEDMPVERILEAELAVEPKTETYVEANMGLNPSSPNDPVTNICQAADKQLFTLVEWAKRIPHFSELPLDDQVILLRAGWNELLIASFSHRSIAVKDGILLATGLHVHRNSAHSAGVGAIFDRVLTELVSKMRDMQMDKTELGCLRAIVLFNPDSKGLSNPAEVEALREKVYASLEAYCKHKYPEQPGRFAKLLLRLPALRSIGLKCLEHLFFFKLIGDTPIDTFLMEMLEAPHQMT
UniProt Q03181: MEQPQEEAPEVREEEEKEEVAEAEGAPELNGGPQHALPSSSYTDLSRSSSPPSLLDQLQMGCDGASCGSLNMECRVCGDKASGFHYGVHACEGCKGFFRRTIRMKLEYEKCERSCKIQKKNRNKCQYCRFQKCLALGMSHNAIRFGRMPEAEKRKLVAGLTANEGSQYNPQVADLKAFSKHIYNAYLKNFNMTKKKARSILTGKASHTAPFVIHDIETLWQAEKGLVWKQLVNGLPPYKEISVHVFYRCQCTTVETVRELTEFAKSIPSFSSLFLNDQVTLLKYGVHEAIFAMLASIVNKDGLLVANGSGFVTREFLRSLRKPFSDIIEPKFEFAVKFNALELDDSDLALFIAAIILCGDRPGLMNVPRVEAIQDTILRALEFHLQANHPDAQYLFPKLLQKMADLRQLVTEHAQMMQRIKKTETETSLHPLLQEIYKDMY

How the values were obtained:
[1] = qHTS assay to identify small molecule agonists of the farnesoid-X-receptor (FXR) signaling pathway - cell viability counter screen (AID 743218); further: nearly all actives have a fitted effect of over 45% in size; further: potency means the concentration at half of the fitted maximal effect
Procedure, shortened: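 After 16 h at 37 C with test compounds, FXR-bla HEK 293T cells were given LiveBLAzer B/G substrate for 2 h at RT and then CellTiter-Glo; luminescence was taken after 30 min.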

[2] = molecular target: Bile acid receptor (Homo sapiens) (UniProt Q96RI1); assay: qHTS assay to identify small molecule agonists of the farnesoid-X-receptor (FXR) signaling pathway (AID 743220; active means well fitted activation curve with a large enough effect in the signal ratio in the repeat runs, not every such curve was filed as active; the % refers to the signal ratio; further: on the % scale 0 is the no-effect control and ±100 the full control effect); conditions: HEK293T FXR-UAS-bla, beta-lactamase FRET ratio, 16 h
[3] = qHTS assay to identify small molecule antagonists of the vitamin D receptor (VDR) signaling pathway - cell viability counter screen (AID 743225); further: nearly all actives have a fitted effect of over 50% in size; further: potency means the concentration at half of the fitted maximal effect
Procedure, shortened: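 Cells (VDR-UAS-bla HEK 293T) are plated, rested 4 h at 37C, dosed with compound and 3 nM final 1-alpha,25-dihydroxy vitamin D3, and incubated 16 h. Viability is taken from CellTiter-Glo luminescence in the reporter wells.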

[4] = qHTS assay to identify small molecule agonists of the RXR signaling pathway - cell viability counter screen (AID 1159529); further: nearly all actives have a fitted effect of over 50% in size; further: potency means the concentration at half of the fitted maximal effect
Procedure, shortened: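 Cell viability is measured by CellTiter-Glo luminescence, 30 min at room temperature, in wells already read for beta-lactamase. Engineered HEK 293T cells (RXR-alpha-UAS-bla) are dosed 16 hr at 37 C. Tetraoctyl ammonium bromide serves as positive control.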

[5] = qHTS assay to identify small molecule antagonists of the peroxisome proliferator-activated receptor delta (PPARd) signaling pathway - cell viability counter screen (AID 743213); further: nearly all actives have a fitted effect of over 50% in size; further: potency means the concentration at half of the fitted maximal effect
Procedure, shortened: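 Cytotoxicity counter screen: CellTiter-Glo luminescence read 30 min after addition, in the same wells as the reporter assay. There, PPARd UAS-bla HEK293H cells (3000/well) were treated 17 h at 37 C with compound and 300 nM L165041.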

[6] = qHTS assay to identify small molecule antagonists of the farnesoid-X-receptor (FXR) signaling pathway - cell viability counter screen (AID 743221; active means well fitted cell-killing curve with a large enough effect in the repeat runs, not every such curve was filed as active; further: on the % scale 0 is the no-effect control and ±100 the full control effect; nearly all actives have a fitted effect of over 50% in size)
[7] = qHTS assay to identify small molecule agonists of the NFkB signaling pathway - cell viability counter screen (AID 1159515; calls by dose curve; further: on the % scale 0 is the no-effect control and ±100 the full control effect; nearly all actives have a fitted effect of over 55% in size); conditions: NFkB-bla ME-180 viability, CellTiter-Glo luminescence, 5 h; at 61 µM (top of the series) unless noted
Procedure, shortened: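 5 hr compound treatment of NFkB-bla ME-180 cells (2,000/well, seeded overnight beforehand), followed by reporter substrate for 1.5 hr. CellTiter-Glo added afterward; luminescence after 30 min RT.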

[8] = qHTS assay to identify small molecule agonists of the endoplasmic reticulum stress response signaling pathway (AID 1159516; active means well fitted activation curve with a large enough effect in the signal ratio in the repeat runs, not every such curve was filed as active; the % refers to the signal ratio; further: on the % scale 0 is the no-effect control and ±100 the full control effect); conditions: ESRE-bla HeLa, ER stress beta-lactamase reporter, 5 h; at 61 µM (top of the series) unless noted
Procedure, shortened: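 Reporter HeLa cells (ESRE-beta-lactamase) underwent 5 hr compound incubation at 37 C and 5% CO2 in quantitative HTS format. Detection followed 2 hr of FRET substrate loading at room temperature.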

[9] = molecular target: Nuclear receptor ROR-gamma (Homo sapiens) (UniProt P51449); assay: qHTS assay to identify small molecule antagonists of the retinoid-related orphan receptor gamma (ROR-gamma) signaling pathway (AID 1159521); conditions: Tet-on RORgamma CHO cells, RORE-luciferase, 16 h
[10] = qHTS assay to identify small molecule agonists of the AP-1 signaling pathway - cell viability counter screen (AID 1159525; calls by dose curve; further: nearly all actives have a fitted effect of over 55% in size); conditions: ME-180 AP-1-bla cells viability, ATP luminescence, 5 h; at 76.8 µM (top of the series) unless noted
Procedure, shortened: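 Luminescent ATP readout (Cell Titer Glo, 30 min RT), normalised to DMSO and tetra n-octyl ammonium bromide controls. Cells were ME-180 AP-1-bla in 0.5% dialyzed FBS Opti-MEM, with a 5 h, 37 °C compound exposure.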

[11] = qHTS assay to identify small molecule agonists of the AP-1 signaling pathway (AID 1159526; calls by dose curve; further: on the % scale 0 is the no-effect control and ±100 the full control effect); conditions: ME-180 (cervical carcinoma) AP-1-bla reporter, beta-lactamase FRET ratio, 5 h; at 76.8 µM (top of the series) unless noted
[12] = molecular target: Retinoic acid receptor RXR-alpha (Homo sapiens) (UniProt P19793); assay: qHTS assay to identify small molecule agonists of the RXR signaling pathway (AID 1159527; calls by dose curve; further: on the % scale 0 is the no-effect control and ±100 the full control effect; nearly all actives have a fitted effect of over 35% in size); conditions: HEK293T RXRa-UAS-bla, beta-lactamase ratio, 16 h
[13] = qHTS assay to identify small molecule antagonists of the retinoid acid receptor (RAR) signaling pathway - cell viability counter screen (AID 1159551); conditions: C3RL4 cells viability, ATP luminescence (CellTiter-Glo), 6 h; at 92.4 µM (top of the series) unless noted; further: on the % scale 0 is the no-effect control and ±100 the full control effect; nearly all actives have a fitted effect of over 35% in size
Procedure, shortened: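 Seed C3RL4 cells; next day add compound, then retinol to 1 uM final; incubate 6 h at 37 C; add CellTiter-Glo; read luminescence after 30 min at RT.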

[14] = qHTS assay to identify small molecule agonists of the retinoic acid receptor (RAR) signaling pathway (AID 1159553); conditions: C3RL4 RARE luciferase reporter, agonist, 6 h; at 73.3 µM (top of the series) unless noted; further: on the % scale 0 is the no-effect control and ±100 the full control effect
Procedure, shortened: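 Activation of retinol signaling was monitored via a RARE luciferase reporter in C3RL4 cells. After 6 hr compound treatment at 37 C, detection reagent was added for 30 min at room temperature before luminescence reading.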

[15] = molecular target: Peroxisome proliferator-activated receptor delta (Homo sapiens) (UniProt Q03181); assay: qHTS assay to identify small molecule antagonists of the peroxisome proliferator-activated receptor delta (PPARd) signaling pathway (AID 743215; active means well fitted inhibition curve with a large enough effect in the signal ratio in the repeat runs, not every such curve was filed as active; the % refers to the signal ratio); conditions: HEK293H PPARd-UAS-bla, beta-lactamase FRET ratio, antagonist, 17 h; at 62 µM (top of the series)
Procedure, shortened: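 With L165041 present at 300 nM final, compounds were incubated 17 h at 37 C on PPARd UAS-bla HEK293H cells. A FRET-based beta-lactamase substrate was then applied for 2 h at room temperature and fluorescence intensity recorded.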

SMILES: O=C1C2CC=CCC2C(=O)N1SC(Cl)(Cl)C(Cl)Cl (centres undefined)
- Potency [1]: inactive and active: 7.76 µM
- activation ([2]; at 62.6 µM (top of the series)): inactive: -6.31%
- activation ([2]; at 81.1 µM (top of the series)): inactive: 0.64%
- Potency [3]: active: 7.76 µM
- Potency [4]: active: 4.9 µM

SMILES: O=[As]c1ccccc1 (centres undefined)
- Potency [5]: active: 0.616 µM
- Potency [3]: active: 0.49 µM
- Potency [4]: active: 0.871 µM

SMILES: CCCCO[P+](=O)OCCCC
- Potency [5]: inactive
- Potency [1]: inactive
- Potency [6]: inactive
- Potency [3]: inactive
- activity, negative = cytotoxic [7]: inactive: -1.38%
- activation [8]: inactive: 0.736%
- activity change, negative = inhibition ([9]; at 92.4 µM (top of the series)): inactive: 4.98% and inactive: -25.1%
- viability change, negative = cytotoxic [10]: inactive: 3.62% and inactive: -1.53%
- activation [11]: inactive: -0.439% and inactive: -1.24%
- activation ([12]; at 76.8 µM (top of the series)): inactive: -0.76% and inactive: 0.505%
- Potency [4]: inactive
- activity change, negative = cytotoxicity [13]: inactive: -1.36% and inactive: 0.0887%

SMILES: CCOP(=S)(CC)Sc1ccccc1 (centres undefined)
- Potency [5]: inactive
- Potency [1]: inactive
- Potency [6]: inactive
- Potency [3]: inactive
- activity, negative = cytotoxic [7]: inactive: -4.55%
- activation [8]: inactive: -0.0559%
- activity change, negative = inhibition ([9]; at 92.4 µM (top of the series)): inactive: 4.72%
- viability change, negative = cytotoxic [10]: inactive: 3.67%
- activation [11]: inactive: 8.92%
- activation ([12]; at 76.8 µM (top of the series)): inactive: 0.625%
- Potency [4]: inactive
- activity change, negative = cytotoxicity [13]: inactive: -7.86%
- activation [14]: inactive: -2.18%

SMILES: CN(C(=O)Cc1ccc(Cl)c(Cl)c1)[C@H]1CC[C@@]2(CCCO2)C[C@@H]1N1CCCC1
- Potency [5]: inactive
- ratio activity, negative = inhibition [15]: inactive: 0.563%
- Potency [1]: inactive
- Potency [6]: inactive
- Potency [3]: inactive
- activity, negative = cytotoxic [7]: inactive: 0.463%
- activation [8]: inactive: -0.137%
- activity change, negative = inhibition ([9]; at 42.5 µM (top of the series)): inactive: -8.84%
- viability change, negative = cytotoxic [10]: inactive: 7.54% [at 35.3 µM]
- activation [11]: inactive: -1.17% [at 35.3 µM]
- activation ([12]; at 35.3 µM (top of the series)): inactive: -7.75%
- Potency [4]: inactive
- activity change, negative = cytotoxicity [13]: inactive: 0.125% [at 42.5 µM]
- activation [14]: inactive: -4.09%

SMILES: O=P(Cl)(Cl)c1ccccc1
- Potency [5]: inactive
- Potency [1]: inactive
- Potency [6]: inactive
- Potency [3]: inactive
- activity, negative = cytotoxic [7]: inactive: 11.4%
- activation [8]: inactive: 0.0717%
- activity change, negative = inhibition ([9]; at 92.4 µM (top of the series)): inactive: 17%
- viability change, negative = cytotoxic [10]: inactive: 14.2%
- activation [11]: inactive: -3.24%
- activation ([12]; at 76.8 µM (top of the series)): inactive: 8.97%
- Potency [4]: inactive
- activity change, negative = cytotoxicity [13]: inactive: 1.31%

SMILES: O=[N+]([O-])c1ccc(S(=O)(=O)O)c([N+](=O)[O-])c1
- Potency [5]: inactive
- Potency [1]: inactive
- Potency [6]: inactive
- Potency [3]: inactive
- activity, negative = cytotoxic [7]: inactive: 14.9% [at 78.8 µM]
- activation [8]: inactive: -1.2% [at 78.8 µM]
- viability change, negative = cytotoxic [10]: inactive: 7.8%
- activation [11]: inactive: -0.379%
- Potency [4]: inactive
- activity change, negative = cytotoxicity [13]: inactive: 5.65%
